pKi: −log10 of the molar value.
Target: Metabotropic glutamate receptor 5 (Rattus norvegicus, UniProt P31424)
Assay: Displacement of [3H]-MPEP from rat mGluR5

Sequences of proteins named here, by UniProt entry; tags and fusion partners are left off.
UniProt P31424, whole entry: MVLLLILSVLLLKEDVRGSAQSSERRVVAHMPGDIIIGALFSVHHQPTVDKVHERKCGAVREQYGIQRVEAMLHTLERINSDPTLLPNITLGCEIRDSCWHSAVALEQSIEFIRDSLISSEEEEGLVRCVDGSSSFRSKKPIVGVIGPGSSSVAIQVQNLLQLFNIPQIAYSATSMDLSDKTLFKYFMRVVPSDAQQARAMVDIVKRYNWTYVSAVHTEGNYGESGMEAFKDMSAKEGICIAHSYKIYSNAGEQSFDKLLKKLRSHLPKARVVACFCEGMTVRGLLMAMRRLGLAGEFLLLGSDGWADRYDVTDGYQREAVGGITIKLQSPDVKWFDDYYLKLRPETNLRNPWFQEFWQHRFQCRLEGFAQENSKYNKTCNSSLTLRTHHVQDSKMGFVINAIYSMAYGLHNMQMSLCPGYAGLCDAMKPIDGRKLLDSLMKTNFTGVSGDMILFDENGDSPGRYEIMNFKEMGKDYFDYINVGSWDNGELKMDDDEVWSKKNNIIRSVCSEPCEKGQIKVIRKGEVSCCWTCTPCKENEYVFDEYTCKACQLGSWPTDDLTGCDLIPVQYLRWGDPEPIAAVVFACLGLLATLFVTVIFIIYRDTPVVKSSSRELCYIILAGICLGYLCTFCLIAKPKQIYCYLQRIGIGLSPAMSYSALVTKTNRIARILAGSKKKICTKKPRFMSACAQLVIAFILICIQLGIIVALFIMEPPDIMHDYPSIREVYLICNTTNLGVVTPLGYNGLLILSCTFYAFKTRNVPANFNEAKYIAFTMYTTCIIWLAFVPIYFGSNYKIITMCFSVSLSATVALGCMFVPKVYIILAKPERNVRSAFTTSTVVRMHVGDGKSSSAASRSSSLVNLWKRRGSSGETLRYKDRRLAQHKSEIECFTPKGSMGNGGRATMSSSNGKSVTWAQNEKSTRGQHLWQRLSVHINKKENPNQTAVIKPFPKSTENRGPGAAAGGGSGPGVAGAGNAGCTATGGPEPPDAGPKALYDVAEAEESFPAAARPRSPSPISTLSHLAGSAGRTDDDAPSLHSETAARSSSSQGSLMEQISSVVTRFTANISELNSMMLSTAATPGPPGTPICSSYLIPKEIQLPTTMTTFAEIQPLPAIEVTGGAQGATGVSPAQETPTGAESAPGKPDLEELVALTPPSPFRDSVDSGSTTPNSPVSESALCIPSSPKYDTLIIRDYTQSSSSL

- pKi: 7.89
Structure (SMILES): Cc1cccc(C#Cc2ccccc2)n1

Source: ChEMBL document CHEMBL1770108, “Design and synthesis of substituted N-(1,3-diphenyl-1H-pyrazol-5-yl)benzamides as positive allosteric modulators of the metabotropic glutamate receptor subtype 5” (Bioorg Med Chem Lett, 2011)
